{"source": "paper PMC10901892", "about": "(Scientific Reports, 2024)", "key": {"[1]": {"tested_on": "isolated mouse liver mitochondria", "conditions": "succinate, oligomycin A"}, "[2]": {"conditions": "cited from earlier work"}}, "note": "Some compounds may have been tested in ways that are not shown here."}
{"smiles": "O=[N+]([O-])c1cc([N+](=O)[O-])c(O)c([N+](=O)[O-])c1", "values": [{"measurement": "uncoupling activity (in words)", "setting": "[1]", "value": "no significant uncoupling activity"}, {"measurement": "pKa of the phenolic hydroxy group", "setting": "[2]", "value": 0.25}]}
